Values after ≈ are worked out from the molar mass of the structure shown.
Legend:
[1] = system: conditioned medium from MCF7/6 mammary carcinoma cells; test: Degradation in conditioned medium from MCF7/6 mammary carcinoma cells (HPLC)
[2] = system: MCF7/6 human mammary carcinoma cells; test: Accumulation in MCF7/6 tumor cells (HPLC of cell extracts)
[3] = system: MCF7/6 human mammary tumor; test: MCF7/6 human mammary tumor implanted in athymic mice; assay type: in vivo, mouse; conditions: athymic mice with implanted MCF7/6 human mammary tumor
Experimental: These experiments were carried out according to the protocols described in Example 11.

MRC5 fibroblast cells [4] = test: Cytotoxicity with respect to MRC5 normal cells (72 h, Bradford protein)
[5] = Degradation in human blood at 37 C
MRC5 fibroblast cells [6] = test: Accumulation in MRC5 normal fibroblast cells (HPLC of cell extracts)
[7] = system: MCF7/6 human mammary carcinoma cells; test: Cytotoxicity with respect to MCF7/6 tumor cells (72 h, Bradford protein)

**Q.** Which results are given for `COc1cccc2c1C(=O)c1c(O)c3c(c(O)c1C2=O)C[C@@](O)(C(=O)CO)C[C@@H]3O[C@H]1C[C@H](NC(=O)[C@H](CC(C)C)NC(=O)[C@H](C)NC(=O)[C@H](CC(C)C)NC(=O)CCN)[C@H](O)[C@H](C)O1` [β-Ala-Leu-Ala-Leu-DOX, β-alanyl-L-leucyl-L-alanyl-L-leucyldoxorubicin]?
**A.** rate of hydrolysis by the peptidase(s) secreted by MCF7/6 cells ([1]; compared with the DNR prodrug): hydrolyzed less rapidly than the DNR prodrug; Starting material or Metabolite, After 2 hours ([1]; β-Ala-Leu-Ala-Leu-DOX incubated at 37 C in MCF7/6 conditioned medium concentrated 20 times, share of each species, 2 hours): 23%; Starting material or Metabolite, Time 0 ([1]; β-Ala-Leu-Ala-Leu-DOX incubated at 37 C in MCF7/6 conditioned medium concentrated 20 times, share of each species, time 0): 100%; intracellular levels of DOX in MCF7 tumor cells, times as high as in MRC5 nontumor cells ([2]; 6 h incubation): 22 times; Accumulation after 6 h, A-L-A-L-DOX ([2]; MCF7/6 cells, 10 μg eq. DOX/ml): 0.10 μg/mg cellular prot.; Accumulation after 6 h, DOX ([2]; MCF7/6 cells, 10 μg eq. DOX/ml): 0.22 μg/mg cellular prot.; Accumulation after 6 h, Leu-DOX ([2]; MCF7/6 cells, 10 μg eq. DOX/ml): 0.65 μg/mg cellular prot.; accumulation, times less than DOX ([2]; MCF7/6 cells, after 6 hours): 69 times; intracellular DOX levels, times lower than with DOX ([2]; MCF7/6 cells, after 6 hours): 31 times; mean weight of the mice treated [3]: without substantially affecting the mean weight; progression of the cancerous tumor (mean tumor mass) [3]: reduces the progression of the cancerous tumor; IC50 (72 h) (MRC5 fibroblast cells [4]): 120 µg/mL (≈ 132 µM); times less cytotoxic than DOX (MRC5 fibroblast cells [4]; 72 hours): 6,700 times; stability when incubated in human blood [5]: stable; prodrug hydrolyzed to L-Leu-DOX ([5]; human blood, after 2 hours): less than 2%; Accumulation after 6 h, A-L-A-L-DOX (MRC5 fibroblast cells [6]; 10 μg eq. DOX/ml): 0.10 μg/mg cellular prot.; Accumulation after 6 h, DOX (MRC5 fibroblast cells [6]; 10 μg eq. DOX/ml): 0.01 μg/mg cellular prot.; Accumulation after 6 h, Leu-DOX (MRC5 fibroblast cells [6]; 10 μg eq. DOX/ml): 0.10 μg/mg cellular prot.; accumulation, times less than DOX (MRC5 fibroblast cells [6]; after 6 hours): 112 times; intracellular DOX levels, times lower than with DOX (MRC5 fibroblast cells [6]; after 6 hours): 1100 times; times as toxic for MCF7 tumor cells as for MRC5 nontumor cells ([7]; 72 hours): 40 times; IC50 (72 h) ([7]; MCF7/6 cells): 3.0 µg/mL (≈ 3.29 µM); times less cytotoxic than DOX ([7]; MCF7/6 cells, 72 hours): 1,000 times
